The results in this text go back to patent US8742173B2, “Phenolic hydrazone macrophage migration inhibitory factor inhibitors” (The Feinstein Institute for Medical Research, priority 2006, dated 2014).

Sequences of proteins named here, by UniProt entry; tags and fusion partners are left off. Residues count along the entry.
UniProt P14174, 2-115 limits assumed: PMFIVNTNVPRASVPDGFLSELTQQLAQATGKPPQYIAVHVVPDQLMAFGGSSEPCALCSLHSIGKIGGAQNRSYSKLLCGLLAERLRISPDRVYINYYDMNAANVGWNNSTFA

The target of the assay is MIF (Homo sapiens, UniProt P14174). As to the kind of experiment: Spectrophotometric assay of MIF tautomerase activity on L-dopachrome methyl ester. Type of assay: biochemical. As to conditions: read-out: IC50 for inhibition of MIF tautomerase activity; Table 1; L-dopachrome methyl ester substrate.

Structures are written as SMILES.

As to `Oc1ccc(/C=N/Nc2ccccc2)cc1F`, the IC50 is 1.5 µM.
